From publication PMC4441257, “A large genomic island allows Neisseria meningitidis to utilize propionic acid, with implications for colonization of the human nasopharynx” (Molecular Microbiology, 2014)

Test system: CC(=O)O
Experiment: purified protein

Substance | Km
NMB0435 (AckA1) (Neisseria meningitidis MC58) | 20.8 ± 4.6 mM
NMB1518 (AckA2) (Neisseria meningitidis MC58) | 25.7 ± 4.3 mM
